According to patent publication US20230285402A1, “Compositions and Methods of Modulating Short-Chain Dehydrogenase Activity” (BOARD OF REGENTS OF THE UNIVERSITY OF TEXAS SYSTEM, priority 2013, published 2023):
pIC50: −log10 of the molar value.

Amino acid sequences for entries named in this document (tags omitted).
UniProt P15428, whole entry: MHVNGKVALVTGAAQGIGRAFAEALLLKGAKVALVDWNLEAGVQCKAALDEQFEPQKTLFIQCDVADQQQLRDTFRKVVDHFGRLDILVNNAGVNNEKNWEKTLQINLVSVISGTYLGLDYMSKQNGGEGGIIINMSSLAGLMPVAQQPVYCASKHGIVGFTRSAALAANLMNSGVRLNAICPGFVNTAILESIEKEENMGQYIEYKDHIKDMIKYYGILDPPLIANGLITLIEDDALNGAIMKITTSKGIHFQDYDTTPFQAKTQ

Assays:
[1] = target: recombinant 15-PGDH protein (a 15-PGDH-GST fusion protein) (Homo sapiens (Human), UniProt P15428); assay: Recombinant 15-PGDH activity, transfer of tritium from 15(S)-[15-3H] PGE2 to glutamate; assay type: biochemical; details: FIG. 13; tritium method
[2] = target: T1, 15-PGDH (Homo sapiens (Human), UniProt P15428); assay: Melting temperature shift of recombinant 15-PGDH (SYPRO Orange); assay type: binding; details: cofactor 10 μM and 100 μM
[3] = system: 15-PGDH mRNA; assay: 15-PGDH mRNA by real-time PCR in colon cancer cell lines; details: treated colon cancer cell lines
[4] = target: T1, 15-PGDH; assay: Total 15-PGDH activity in lysates of treated cell lines; assay type: cell-based; details: FIG. 13; tritium method
[5] = system: A549 cells; assay: PGE2 in medium of IL1-beta stimulated A549 cells; assay type: cell-based; details: IL1-beta 23 hours, compound for last 5 hours
[6] = system: 15-PGDH protein; assay: Western blot / immuno-fluorescence of 15-PGDH protein levels in treated cells

pIC50 [1]: 7.30 | direct binding to 15-PGDH, in words [2]: evidence of direct binding
SMILES: COc1ccc(-c2cc(C(F)(F)F)n3nc(C(=O)N4CCCCC4)cc3n2)cc1
15-PGDH mRNA levels [3]: do not in general alter 15-PGDH mRNA levels | 15-PGDH activity in treated cells [4]: increasing 15-PGDH activity in most cell lines | 15-PGDH activity in cells as reflected in PGE2 levels [5]: clear inhibition of 15-PGDH activity | wt-PGDH protein expressed from cDNA expression vector ([6]; 5 μM, V400-S3-2-32 cells): increases levels of 15-PGDH protein | catalytically dead mutant 15-PGDH (mu-PGDH) protein ([6]; V400-M3-2-72 cells): increases protein levels | 15-PGDH protein levels (immuno-fluorescence and western blot) ([6]; V503 cells): increase in 15-PGDH protein levels | 15-PGDH protein levels (western blot) ([6]; colon cell lines, FIG. 3): increases 15-PGDH protein levels
